GIV-Gai inh: inhibitors of GIV peptide binding to Galpha-i3, primary screen, biochemical, fluorescence polarization, FITC-GIV GBA peptide, rat Galphai3 | Guanine nucleotide-binding protein G(i) subunit alpha-3 (Rattus norvegicus), P08753 | 90 min; active compounds read low; scaled: aluminum fluoride 0%, vehicle 100% | 210,000 tested, 0.42% active | AID 1224905, 2016 | percent of control (FP), % (no concentration beside the values);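 active means replicate mean at 85% of control or lower, very high polarization wells dropped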;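 further: wells of about 15 µL received 100 nL stock; the first replicate is given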
HCMV NEC inh: inhibitors of HCMV UL50-UL53 interaction, biochemical, HTRF; normalized percent inhibition; 0.15% of 190,000 active; HCMV UL50-UL53 nuclear egress complex (human cytomegalovirus); AID 1918969, 2023; inhibition, % (no concentration beside the values); in the data active = inhibition above about 27%, passing the limit was not always enough
Numbers stand for hits; i = inactive; nt = not tested or not shown. Sampled rows, rich in hits. Any-hit rate of the full collection: about 0.46%.

By UniProt entry, the sequences of proteins in these tests, tags left out.
Guanine nucleotide-binding protein G(i) subunit alpha-3 (Rattus norvegicus), P08753, UniProt P08753, whole entry, looked up: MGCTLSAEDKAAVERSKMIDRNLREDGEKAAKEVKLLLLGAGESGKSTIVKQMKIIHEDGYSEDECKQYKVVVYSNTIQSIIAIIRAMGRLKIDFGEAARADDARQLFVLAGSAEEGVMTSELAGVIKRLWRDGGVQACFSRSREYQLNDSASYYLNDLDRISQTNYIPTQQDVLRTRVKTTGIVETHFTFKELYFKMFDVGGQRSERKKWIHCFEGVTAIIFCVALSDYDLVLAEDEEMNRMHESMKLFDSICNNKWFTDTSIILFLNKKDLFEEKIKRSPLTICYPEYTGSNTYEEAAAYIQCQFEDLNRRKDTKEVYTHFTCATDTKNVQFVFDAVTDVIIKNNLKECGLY

SMILES | GIV-Gai inh | HCMV NEC inh
CC1Cc2ccccc2N1S(=O)(=O)c1ccc2[nH]c(=O)[nH]c2c1 (stereo not drawn) | nt | i
Cc1[nH]c(=O)[nH]c(=O)c1S(=O)(=O)N1c2ccccc2CC1C (stereo not drawn) | -73 | nt
CCc1ccc2occ(CC(=O)Nc3ccc(Cl)cc3)c2c1 | i | nt
CCN(Cc1cc(Cl)cc(Cl)c1)C(=O)c1cnc(OC)cc1C(F)(F)F | i | i
COc1ccccc1C1Nc2ccc(Cl)cc2C(c2ccccc2)O1 (stereo not drawn) | i | nt
CCC(C)n1c(NC(=O)c2ccccc2)c(C#N)c2nc3ccccc3nc21 (stereo not drawn) | nt | 72
CCCCn1c(NC(=O)c2ccccc2)c(C#N)c2nc3ccccc3nc21 | nt | i
Cc1cc(C)c2c(c1)/C(=N/N)CCC2 | nt | i
Cc1ccc(/C=C2/SC(=S)N(c3ccc(S(N)(=O)=O)cc3)C2=O)o1 | nt | i
Cc1ccc(/C=C2\SC(=O)NC2=S)o1 | 46 | i
COc1ccc(C(C)N(C)CCC(=O)O)cc1OC (stereo not drawn) | nt | i
O=C(Nc1nc2n(n1)C(c1ccccc1)C=C(c1ccccc1)N2)c1ccco1 (stereo not drawn) | i | i
O=C(O)CCC(=O)Nc1nc2n(n1)C(c1ccccc1)C=C(c1ccccc1)N2 (stereo not drawn) | 83 | i
Cc1cc(C)cc(N(CC(=O)NC2CCCc3ccccc32)S(=O)(=O)c2c(C)[nH]c(=O)[nH]c2=O)c1 (stereo not drawn) | i | i
COc1ccc(C2CC(=O)C3=C(C2)Nc2ccccc2NC3c2ccccc2Br)cc1 (stereo not drawn) | i | i
COc1ccc(C2CC(=O)C3=C(C2)Nc2ccccc2NC3c2cc([N+](=O)[O-])ccc2Cl)cc1 (stereo not drawn) | i | 41
CN1C(N)=NC(=O)/C1=C/c1coc2ccccc2c1=O | i | i
N=C1/C(=C\c2coc3ccccc3c2=O)C(=O)N=C2SC=NN12 | -55 | nt
CC1CCCC(C)N1C(=O)c1csc2c1CCCC2 (stereo not drawn) | i | i
CCN(CC)c1cc(Nc2ccc(C)c(Cl)c2)c([N+](=O)[O-])c2nonc12 | i | i
Cc1ccc(NNC(=S)NC(=O)C2CC2)c(C)c1 | nt | i
C=CCNC(=O)C1CCCN(C(=O)c2cccc(NS(=O)(=O)c3ccc(C(C)C)cc3)c2)C1 (stereo not drawn) | -65 | nt
CCCc1ccc(S(=O)(=O)Nc2cccc(C(=O)N3CCCC(C(=O)NC4CCCC4)C3)c2)cc1 (stereo not drawn) | i | nt
CCCOC(=O)C1=C(C)NC2=C(C(=O)CC(c3ccc(OC)cc3)C2)C1c1ccc(OC(C)=O)c(OCC)c1 (stereo not drawn) | i | i
CNC(=O)c1c(NC(=O)/C=C/c2cccs2)sc(C)c1C | i | i
SMILES | GIV-Gai inh | HCMV NEC inh
O=C(c1ccc(Nc2nn3c(=O)c4ccccc4nc3s2)cc1)N1CCc2ccccc2C1 | i | 56
Cc1ccccc1Nc1nn2c(=O)c3ccc(C(=O)N4CCc5ccccc5C4)cc3nc2s1 | i | i
COc1ccc(NC(=O)CSc2nc3c(cc2C#N)CCCC3)cc1 | i | nt
Cc1cc(C)nc(NS(=O)(=O)c2ccc(NC(=O)CSc3nc4c(cc3C#N)CCCCC4)cc2)n1 | i | 28
O=C(c1ccc(-c2noc(C3CC3)n2)cc1)N1CCCN(c2nc3ncccc3o2)CC1 | i | i
COC(=O)c1sccc1NC(=O)c1cc(-c2ccccn2)nc2ccccc12 | i | i
C=CCNc1nc2c(C)cccn2c(=O)c1/C=C1\SC(=S)NC1=O | -42 | nt
Cc1cccn2c(=O)c(/C=C3\SC(=S)N(Cc4ccccc4)C3=O)c(NCc3ccco3)nc12 | i | nt
O=C(NCC1CCCO1)c1ccc(-n2cnc3cccnc32)cc1 (stereo not drawn) | nt | i
CCOc1ccccc1C1C(C#N)=C(N)SC(N)=C1C#N | -78 | i
CCc1ccc(C2C(C#N)=C(N)SC(N)=C2C#N)cc1 | nt | i
O=S(=O)(c1ccc(-n2cccn2)cc1)N1CCCC2CCCCC21 (stereo not drawn) | i | nt
CC(C(=O)NC(=O)NC1CCCCC1)N1CCN(S(=O)(=O)c2cc(Br)ccc2Br)CC1 (stereo not drawn) | nt | i
CC1CCC(NS(=O)(=O)c2ccc(-c3ccno3)s2)CC1 (stereo not drawn) | i | nt
CC(C)NS(=O)(=O)c1ccc(-c2ccno2)s1 | 31 | nt
O=[N+]([O-])c1ccc2sc(SCc3nc4ncccn4c3Br)nc2c1 | i | i
O=c1oc2cc(O)ccc2cc1-c1cc(F)cc(F)c1 | i | i
N#Cc1cc2ccc(O)cc2oc1=N | -3.8 | i
O=C1c2cccc3c(N4CCOCC4)ccc(c23)C(=O)N1c1ccccc1 | i | i
Cc1n[nH]c(C)c1N1C(=O)c2cccc3c(N4CCCCC4)ccc(c23)C1=O | -6.8 | i
COc1ccc2c(c1)C(C(C#N)C#N)C(C#N)=C(N)O2 (stereo not drawn) | i | i
Nn1c(SCc2cn3ccccc3n2)nnc1C1CC1 | nt | i
O=c1[nH]nc(SCc2cccc3ccccc23)c(=O)[nH]1 | 85 | i
O=c1[nH]nc(SCc2ccccc2)c(=O)[nH]1 | i | i
COc1cccc2cc(C(=O)C3=C(O)C(=O)N(CCCn4ccnc4)C3c3ccc(F)cc3)oc12 (stereo not drawn) | i | i
SMILES | GIV-Gai inh | HCMV NEC inh
COc1cc(C2C(C(=O)c3cc4cccc(OC)c4o3)=C(O)C(=O)N2c2nnc(C)s2)cc(Br)c1O (stereo not drawn) | 27 | i
CN1CCCc2cc(C(CNC(=O)c3cccc(Cl)c3)N3CCCC3)ccc21 (stereo not drawn) | i | i
Cc1nc2nc(-c3ccccc3)c(-c3ccccc3)n2nc1C | i | nt
c1ccc(-c2nc3nc(-c4ccccc4)c(-c4ccccc4)n3nc2-c2ccccc2)cc1 | -31 | nt
Cc1nc(OCC(=O)N2CCc3ccccc32)c2c(-c3ccc(F)cc3)noc2n1 | i | nt
CCOC(=O)C1=CN(Cc2ccc(Cl)cc2)C=C(C(=O)OCC)C1c1cccc(OC)c1OC | i | nt
N#C/C(=C/c1ccc(-c2ccc(C(=O)O)cc2)o1)c1ccc(Cl)cc1 | i | i
Cc1ccc2nc(/C(C#N)=C/c3ccc(-c4cccc(Cl)c4)o3)[nH]c2c1 | i | i
N#C/C(=C\c1ccc(-c2ccc(Cl)c(C(=O)O)c2)o1)c1nc2ccccc2[nH]1 | -58 | i
N#C/C(=C\c1ccc(-c2ccc(C(=O)O)cc2)o1)c1nc2ccccc2[nH]1 | -6.1 | i
CCN(CCCNC(=O)CCc1nc2sc3c(c2c(=O)[nH]1)CCC(C(C)(C)C)C3)c1ccccc1 (stereo not drawn) | i | i
COc1ccc(-c2nc3ccccn3c2NC(=O)CC(C)C)cc1 | nt | i
N#Cc1nc2c(nc1C#N)-c1ccccc1C2=O | i | i
O=C1c2ccccc2-c2nc3nnnn3nc21 | nt | 103
CCc1cccc2c1=NC(=O)C=2c1c(C)[nH]n(-c2ccccc2)c1=O | i | i
Cc1[nH]n(-c2ccccc2)c(=O)c1C1=c2ccccc2=NC1=O | nt | 68
CCOC(=O)C1CCCN(C(=O)C2CCCCC2)C1 (stereo not drawn) | i | i
CCOC(=O)c1nc(NCCc2c(C)nn(CC)c2C)c2c(C)noc2n1 | i | i

From PubChem
